A short description of data set [1]: Evaluation of stability (1): forced degradation test, impurities by LC. As to the method:
A sample after storage was dissolved in 1 mL of MeOH and used as a sample solution. The sample solution was diluted 100 times with MeOH and used as a standard solution. Impurities contained in the sample solution was quantitatively analyzed using the standard solution. In this determination, the apparatus including data processing was operated according to the method and procedure directed in each device. (Apparatus: LC-MSD 1100 series, made by Agilent)

A short description of data set [2]: Evaluation of hygroscopicity (dynamic steam adsorption, weight change). Type of data set: physicochemical. The note with it: 25° C., within the range 5–95% relative humidity. As to the method: A sample (about 5 mg) was placed in a purpose-made quartz holder, and the sample weight at the respective humidity was continuously measured and recorded in the following conditions. The apparatus including data processing was operated according to the method and procedure directed in each device. (Apparatus: dynamic steam adsorption measuring apparatus DVS Advantage, made by SMS)

Consider “(−)-(3R)-quinuclidin-3-yl(1R)-1-phenyl-1,2,3,4-tetrahydroisoquinoline-2-carboxylate cyclohexanesulfamate [Example 6]”, for which, in data set [1] (25° C., NUV (near ultraviolet ray) irradiated, tightly closed, 5 days), the “Change from Impurity Amt. before Storage (%), Condition 3” value worked out at 0.1%. In addition, in data set [1] (25° C., relative humidity 93%, open, 5 days), the “Change from Impurity Amt. before Storage (%), Condition 2” value amounted to 0.0%. Further, the “Change from Impurity Amt. before Storage (%), Condition 1” value in data set [1] (120° C., tightly closed, 24 hours) amounted to 8.1%. The “Increase of impurities under heat” value in data set [1] (Condition 1 of Test Example 2 (stability test to heat)) is given as “increase of impurities”. Also, the “Impurities before Storage (%)” value in data set [1] (before storage) was 1.4%. The “Weight Change (%)” value in data set [2] is listed as under 3%.
